OPERA 2.9 data: properties

Melting points are in °C.
The boiling point refers to atmospheric pressure (760 mmHg), by the definition of the set.
The octanol-water partition coefficient is given as log10; larger values mean a more lipophilic compound.
Solubility in water is on a log10 molar scale (set defined at 25 °C).
Vapor pressures (log10 mmHg) refer to near room temperature, 15 to 30 °C; higher is more volatile.
Henry's law constant (air-water partitioning) is log10 of atm·m3/mol, nominally at 25 °C.
The unbound fraction in human plasma runs from 0 (all bound) to 1 (all free).
Intrinsic clearance (human, µL/min per 10^6 hepatocytes): higher is faster turnover, and 0 stands for none detected.
"n/a" marks a cell with nothing listed here.

structure (SMILES) | name | mp (°C) | boiling point (°C) | logP (octanol/water) | log S (log10 mol/L) | log VP (log10 mmHg) | log Henry constant (log10 atm·m3/mol) | fraction unbound | intrinsic clearance (µL/min/10^6 cells)
CN(C)CCCO | 1-Propanol, 3-(dimethylamino)- | n/a | n/a | -0.24 | n/a | 0.082 | n/a | n/a | n/a
CC(=O)C(/N=N/c1ccc(S(=O)(=O)[O-])cc1[N+](=O)[O-])C(=O)Nc1ccccc1C.CC(=O)C(/N=N/c1ccc(S(=O)(=O)[O-])cc1[N+](=O)[O-])C(=O)Nc1ccccc1C.[Ca+2] (stereo partly drawn) | n/a | n/a | n/a | 0.04 | -7.74 | n/a | n/a | n/a | n/a
CCC(Oc1ccc(F)c(C(F)(F)F)c1)C(=O)NCc1ccccc1 (stereo unspecified) | Beflubutamid | n/a | n/a | n/a | n/a | -7.084 | -8.964 | n/a | n/a
CCCCCCCCC(C)C#N (stereo unspecified) | Decanenitrile, 2-methyl- | -40.9 | n/a | n/a | -4.632 | -1.763 | n/a | n/a | n/a
O=C1c2ccccc2C(=O)c2c(NCCCOCCOCCO)ccc(NCCCOCCOCCO)c21 | n/a | n/a | n/a | 2.61 | n/a | -7.459 | n/a | n/a | n/a
C=CC1=C(C(=O)O)N2C(=O)[C@@H](NC(=O)/C(=N\O)c3csc(N)n3)[C@H]2SC1 | Cefdinir | n/a | n/a | -0.2 | -3.654 | n/a | n/a | n/a | n/a
CCOC1CC(C)CC(C)(C)C1 (stereo unspecified) | 3-Ethoxy-1,1,5-trimethylcyclohexane | n/a | 184 | 3.91 | -4.134 | 0.219 | n/a | n/a | n/a
CN(C)C(=O)C1(N2CCCCC2)CCN(CC[C@@]2(c3ccc(Cl)c(Cl)c3)CN(C(=O)c3ccccc3)CCO2)CC1.Cl | n/a | n/a | n/a | n/a | n/a | n/a | n/a | 0.0127 | 13.6
C[C@]12CC[C@@H]3C4=C(CC[C@H]3[C@@H]1CC[C@@]2(O)CC#N)CC(=O)CC4 | (17alpha)-17-Hydroxy-3-oxo-19-norpregn-5(10)-ene-21-nitrile | n/a | n/a | 2.15 | -3.36 | n/a | n/a | n/a | n/a
ClC1CCCC1 | Cyclopentane, chloro- | n/a | n/a | 2.7 | n/a | 1.474 | n/a | n/a | n/a
c1cc(OCC2CO2)cc(N(CC2CO2)CC2CO2)c1 (stereo unspecified) | n/a | -31.07 | n/a | n/a | -2.193 | -7.487 | n/a | n/a | n/a
CCCCN(c1nc(N2CCCC2)nc(N(CCCC)C2CC(C)(C)N(C)C(C)(C)C2)n1)C1CC(C)(C)N(C)C(C)(C)C1 | n/a | 158 | n/a | n/a | -4.958 | n/a | n/a | n/a | n/a
CC1=CCC(C=CC(C)(C)C(C)O)C1(C)C (stereo unspecified) | n/a | n/a | n/a | 4.66 | -5.785 | -2.201 | n/a | n/a | n/a
OB(O)c1ccc2cc(O)ccc2c1 | (6-Hydroxynaphthalen-2-yl)boronic acid | 217 | n/a | 2.47 | -2.241 | n/a | n/a | n/a | n/a
Cc1cc(O)c(C(C)(C)C)cc1C(C)CC(c1cc(C(C)(C)C)c(O)cc1C)c1cc(C(C)(C)C)c(O)cc1C (stereo unspecified) | n/a | n/a | n/a | n/a | -7.134 | -7.932 | n/a | n/a | n/a
CO[Si](C)(C)OC | Dimethoxydimethylsilane | n/a | n/a | -0.36 | n/a | 1.813 | n/a | n/a | n/a
C=C[C@H]1CC[C@H]([C@H]2CC[C@H](CCCCC)CC2)CC1 | trans-4-pentyl-trans-4'-vinylbicyclohexyl | 51.4 | 351.2 | n/a | -6.942 | n/a | n/a | n/a | n/a
Nc1ccc(C(=O)NCCC(=O)O)cc1 | N-(4-Aminobenzoyl)-beta-alanine | n/a | n/a | -1.19 | n/a | -6.138 | n/a | n/a | n/a
CCCCCCCCCCCCCC(=O)OCC(COC(=O)CCCCCCCCCCCCC)OC(=O)CCCCCCCCCCCCC | Tetradecanoic acid, 1,2,3-propanetriyl ester | n/a | 394 | n/a | -8.647 | n/a | n/a | n/a | n/a
N=C(N)NC(=N)NCCc1ccccc1 | Phenformin | n/a | n/a | n/a | -2.947 | n/a | n/a | 0.84 | n/a
C=C(C)C(=O)OCCN1CCOC12CCCCC2 | n/a | n/a | n/a | 3.2 | n/a | -3.439 | n/a | n/a | n/a
CCOCC1CCC(COCC)CC1 (stereo unspecified) | 1,4-Bis(ethoxymethyl)cyclohexane | 10 | 244.9 | 3 | -2.547 | -1.954 | n/a | n/a | n/a
CCCCCCOC(=O)CCCCC | Hexyl hexanoate | n/a | n/a | n/a | -5.324 | -1.608 | n/a | n/a | n/a

3 of these entries, quoted again:

structure (SMILES) | name | mp (°C) | boiling point (°C) | logP (octanol/water) | log S (log10 mol/L) | log VP (log10 mmHg) | log Henry constant (log10 atm·m3/mol) | fraction unbound | intrinsic clearance (µL/min/10^6 cells)
c1cc(OCC2CO2)cc(N(CC2CO2)CC2CO2)c1 (stereo unspecified) | n/a | -31.07 | n/a | n/a | -2.193 | -7.487 | n/a | n/a | n/a
CCCCCCOC(=O)CCCCC | Hexyl hexanoate | n/a | n/a | n/a | -5.324 | -1.608 | n/a | n/a | n/a
CCOCC1CCC(COCC)CC1 (stereo unspecified) | 1,4-Bis(ethoxymethyl)cyclohexane | 10 | 244.9 | 3 | -2.547 | -1.954 | n/a | n/a | n/a

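OPERA's authors assembled the values from existing databases and did not measure them anew. The files give a single number for a compound and property, which may rest on several reports. Method, purity and exact conditions of the single measurements are not given. A value may pool stereoisomers or salt forms, and the file does not say which form was measured. Some upstream entries may be estimates or bounds without being marked so.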

Source: data files of OPERA 2.9 (Mansouri et al.), github.com/kmansouri/OPERA.